Data published in PMC3401313 (Bioorganic & medicinal chemistry letters, 2012).

Sequences of proteins named here, by UniProt entry; tags and fusion partners are left off.
UniProt Q92769, whole entry: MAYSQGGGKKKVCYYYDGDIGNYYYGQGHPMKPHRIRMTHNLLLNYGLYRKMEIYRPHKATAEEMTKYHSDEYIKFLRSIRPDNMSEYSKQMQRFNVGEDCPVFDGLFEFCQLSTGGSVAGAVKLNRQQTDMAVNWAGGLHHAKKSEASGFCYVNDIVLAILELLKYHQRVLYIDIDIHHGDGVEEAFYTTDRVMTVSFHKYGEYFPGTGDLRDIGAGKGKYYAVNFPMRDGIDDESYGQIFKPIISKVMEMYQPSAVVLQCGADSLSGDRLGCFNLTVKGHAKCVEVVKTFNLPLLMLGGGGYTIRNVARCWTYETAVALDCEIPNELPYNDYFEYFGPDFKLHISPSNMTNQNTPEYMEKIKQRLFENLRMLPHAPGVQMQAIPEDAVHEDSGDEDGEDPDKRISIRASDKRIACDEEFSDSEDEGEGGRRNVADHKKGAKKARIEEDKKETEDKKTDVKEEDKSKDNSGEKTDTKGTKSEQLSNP

Molecular target: recombinant human HDAC2 (Homo sapiens, UniProt Q92769)
Test: HDAC2 fluorogenic inhibition assay

Row | IC50 | SMILES
1 | 300 nM | [N-]=[N+]=NCc1cc(COC(=O)NCc2ccc(C(=O)Nc3cc(-c4ccccc4)ccc3N)cc2)cc(N=[N+]=[N-])c1 [2b]
2 | 350 nM | [N-]=[N+]=NCc1cc(COC(=O)NCc2ccc(C(=O)Nc3cc(-c4cccs4)ccc3N)cc2)cc(N=[N+]=[N-])c1 [2c]
